Among the data in PubChem BioAssay AID938 (National Center for Advancing Translational Sciences (NCATS), 2007) are activation values, retold here.

This is a selection; strong and weak results do not stand in their true shares. Inconclusive results are not listed. Activity calls are given as the source filed them. Calls come from the whole dose curve; as a rule, active = well fitted activation curve with a large enough effect; inconclusive = small, poorly fitted or top-dose-only effect; inactive = no such curve, though single readings can be large or run the other way.

The nature of the test: qHTS Assay for Agonists of the Thyroid Stimulating Hormone Receptor: Activators of Intracellular cAMP Concentrations in Parental HEK 293. Note: % of control where 0% means no effect; nearly all actives have a fitted effect of over 55% in size. The conditions noted are these: parental HEK293 CNG cAMP sensor, membrane potential fluorescence; at 57.1 µM (top of the series) unless noted. (In general: Quantitative high-throughput screening tests each substance at several concentrations.)
Take `O=P(Nc1nccs1)(c1ccccc1)c1ccccc1`: the activation was inactive: 5.8%.

Regarding `c1nnnn1CCn1cnnn1`, the activation is inactive: -5.29%.

On to `CN1CCC[C@H](OC(=O)C(c2ccccc2)c2ccccc2)C1`, for which the activation is inactive: 8.42% [at 11.4 µM].

On to `C[C@@H](O)COc1ccc([As](=O)(O)O)cc1N`, for which the activation is inactive: -1.04% [at 11.4 µM].

`Cc1cc([N+](=O)[O-])cc([N+](=O)[O-])c1O`: the activation is inactive: 20.3%.

On to `[N-]=[N+]=Nc1ccc([As](=O)(O)O)cc1`, for which the activation was inactive: 8.27% [at 11.4 µM].

Take `O=C(OC1CN2CCC1CC2)c1cccc(Cl)c1` (stereo not given): the activation was inactive: 7.11%.

Consider `COC(=O)c1cc2c(s1)N=C(c1ccccc1)N(C)P2(=O)N1CCOCC1` (stereo not given), for which the activation is inactive: -15.6%.

Take `O=P1(Nc2nc3ccc(Cl)cc3s2)COc2ccccc2O1` (stereo not given): the activation was inactive: 13%.

Turning to `O=[N+]([O-])c1ccc(C[As](=O)(O)O)cc1`, the activation is inactive: 12.5% [at 11.4 µM].

Consider `Cc1c2non([O-])c-2c(C)[n+](=O)[n+]1[O-]`, for which the activation is inactive: -8.62%.

Turning to `NCC[C@@H](N)CSP(=O)(O)O`, the activation was inactive: 1.33% [at 11.4 µM].

With `[N-]=[N+]=NCC(O)CN=[N+]=[N-]` (stereo not given), the activation is inactive: 5.89% [at 11.4 µM].

Regarding `C(Cc1nn[nH]n1)c1nn[nH]n1`, the activation was inactive: -0.19% [at 11.4 µM].

As to `CN(C(=O)Cc1ccccc1)[C@@H]1CC[C@@]2(CCCO2)C[C@H]1N1CCCC1`, the activation is inactive: 8.41%.

In the case of `CCc1nc2c(n1)c1c(non1O)c1c2no[n+]1[O-]`, the activation was inactive: -11%.

As for `O=C(CO)Nc1ccc([As](=O)(O)O)cc1`, the activation was inactive: 16.5% [at 11.4 µM].

With `COP1(=S)c2c(C)nn(CCC#N)c2N=C(c2ccc(F)cc2)N1C` (stereo not given), the activation is inactive: 4.47%.

As to `O=C(COc1ccccc1)OC1CN2CCC1CC2` (stereo not given), the activation is inactive: -0.127%.

For the compound `O=C(O)[C@@H](O)c1ccc([As](=O)(O)O)cc1`, the activation was inactive: -2.76% [at 11.4 µM].

Consider `CN(N=O)C(=N)N[N+](=O)[O-]`, for which the activation was inactive: 33.9%.

Take `[N-]=[N+]=NCC(N)=O`: the activation is inactive: -1.44% [at 11.4 µM].

With `O=[As]c1ccc(S(=O)(=O)NCCO)cc1` (stereo not given), the activation was inactive: 6.34% [at 11.4 µM].

For `O=C(OC1CN2CCC1CC2)C12CC3CC(CC(C3)C1)C2` (stereo not given), the activation was inactive: 22.7%.

On to `NC(=O)Nc1cc([As](=O)(O)O)cc(I)c1O`, for which the activation is inactive: -2.12% [at 11.4 µM].

With `NS(=O)(=O)Cc1ccc([As](=O)(O)O)cc1`, the activation was inactive: 5.82% [at 11.4 µM].

As for `O=C(CC(=O)c1ccccc1)O[C@H]1CN2CCC1CC2`, the activation was inactive: 7.97% [at 11.4 µM].

Take `O=P(Nc1nccs1)(c1ccccc1)c1nc2ccccc2s1` (stereo not given): the activation was inactive: 15.9%.

Regarding `O=[As](O)(O)c1ccc([As](=O)(O)O)cc1`, the activation was inactive: 16.2% [at 11.4 µM].

For the compound `Cc1nn(-c2ccccc2)c2c1P(=O)(N1CCOCC1)N(C)C(c1ccccc1)=N2` (stereo not given), the activation is inactive: -0.719%.

`O=P1(Nc2ncccn2)COc2ccccc2OC1`: the activation is inactive: 6.25%.

Turning to `O=P1(Nc2ccc(Br)cn2)COc2ccccc2OC1`, the activation was inactive: 1.26%.

In the case of `CN(CCCl)Cc1cc(Cl)c(NC2=NCCN2)c(Cl)c1`, the activation is inactive: -3.35%.

With `O=P1(Nc2ccccn2)COc2ccccc2OC1`, the activation is inactive: 1.91%.

For `Clc1n[nH]nc1-c1nn[nH][15n]1`, the activation was inactive: -0.704%.
